## Apparent affinities of Ab-91 variants for a coronavirus HR2 peptide

Source: Engelhart et al. 2022 (doi:10.1038/s41597-022-01779-4), MIT Lincoln Laboratory and A-Alpha Bio; data file from the FLAb repository.

Target peptide (SARS-CoV-2 spike, HR2 region): PDVDLGDISGINAS

The variants keep the light chain, the linker and the frameworks of Ab-91 (scFv order VL, a 15-residue (Gly4Ser)3 linker, VH).
VL: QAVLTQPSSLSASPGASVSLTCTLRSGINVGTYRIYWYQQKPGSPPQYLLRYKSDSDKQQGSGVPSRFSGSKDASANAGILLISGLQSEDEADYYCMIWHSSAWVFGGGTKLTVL
VH: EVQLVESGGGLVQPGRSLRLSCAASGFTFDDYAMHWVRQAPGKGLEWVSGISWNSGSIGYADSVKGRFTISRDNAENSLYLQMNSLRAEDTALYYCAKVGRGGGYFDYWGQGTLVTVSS

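The parent was found by panning a naive human phage display library on the peptide. Variants in AAYL51 differ from the parent at up to three CDR positions; double and triple changes were sampled at random. The assay is AlphaSeq: two haploid yeast populations carry antibody and antigen on their surface. Pairs that bind mate more often; barcode pairs of the diploids are counted by sequencing. Read counts were normalised to the haploid input and turned into Kd by a linear fit to BCL2-family pairs of known affinity, for each replicate. There are three technical replicates.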

Each variant is given by its three heavy chain CDRs, as the data file delimits them; those of the parent are GFTFDDYAMH, GISWNSGSIGYADSVK, VGRGGGYFDY.
All variants listed here change S57 of the VH, counted from its first residue.
Values are log10 of the apparent Kd in nM; lower means stronger binding.
Replicates are averaged; those with no signal do not enter the mean.
"nd" means that the variant was in the library but no mating with the target was seen in that replicate; the authors take this as a sign of poor binding, and no number exists.
As a blank, each scFv also met three strains without target: over library AAYL51, 21% of these pairings were detected, typically at 4.54 and seldom below 3.26. Also given: how often the same scFv was detected with the empty control strains.

With GFKFDDYAMH, GISWNSGRIGYADSVK, VGRGGGYFDY the result was nd, nd, nd (controls 1 of 9).
With GFTFDWYAMH, GISWNSGCIGYADSVK, VGRGGGYMDY the result was 4.64, nd, nd (controls 0 of 9).
With GFTFDGYAMH, GISWNSGFIGWADSVK, VGRGGGYFDY the result was 4.50, nd, 5.64 (mean 5.07; controls 3 of 9).
With GFMFDDEAMH, GISWNSGHIGYADSVK, VGRGGGYFDY the result was 3.93, nd, nd (controls 2 of 9).
With GFTFDDYAMH, GISWNSGEWGYMDSVK, VGRGGGYFDY the result was 1.31, 1.46, 1.05 (mean 1.27; controls 4 of 9).
With GFTFDDYAMH, GISWKSGAIGYADSVK, VGRGRGYFDY the result was 5.12, nd, nd (controls 3 of 9).
With GSTFDDYAMH, GYSWNSGRIGYADSVK, VGRGGGYFDY the result was nd, 4.84, 4.94 (mean 4.89; controls 1 of 9).
With GFTFDDYAMH, GIGWNSGGIGYADSVR, VGRGGGYFDY the result was nd, nd, nd (controls 2 of 9).
With GFTFDDYAMH, GISWNSGWIGYADPVK, VGCGGGYFDY the result was 4.19, nd, nd (controls 1 of 9).
With EFTFDDYAMH, MISWNSGFIGYADSVK, VGRGGGYFDY the result was nd, nd, nd (controls 2 of 9).
With GFTFDDYAMH, GIDWNSGIIGYADSVK, VGRGGGYFPY the result was 5.38, nd, nd (controls 3 of 9).
With GFTFDDYAMH, GISWNSGGIGYADSVI, VGRGGGCFDY the result was 3.44, 4.20, 4.71 (mean 4.11; controls 1 of 9).
With GFTFDDYAMH, GISWNSGWIGYADSVK, PFRGGGYFDY the result was nd, nd, nd (controls 0 of 9).
With GFTFDDTAMH, EISWNSGGIGYADSVK, VGRGGGYFDY the result was nd, nd, nd (controls 0 of 9).
With GFTFDDYAMH, TISWNSGPIGYADSVK, VGRGGGYFDY the result was nd, nd, 2.32 (controls 1 of 9).
With GFTFDDYAMH, GISDNSGILGYADSVK, VGRGGGYFDY the result was 4.45, 4.72, nd (mean 4.59; controls 5 of 9).
With GFGFDDYAMH, GISWNSGHSGYADSVK, VGRGGGYFDY the result was 3.99, 4.81, 2.42 (mean 3.74; controls 2 of 9).
With GFTFDDYAMH, GISWNSALIGYADSVK, VGRGGGYFDY the result was nd, nd, nd (controls 0 of 9).
With GFTFDDYAMH, GFSWNSGKIGYADSVA, VGRGGGYFDY the result was 4.58, nd, nd (controls 2 of 9).
With GFTFDDYADH, GISWNSGPIGYADSVK, VVRGGGYFDY the result was 5.23, 5.18, nd (mean 5.20; controls 2 of 9).
With GLTFDDYAMH, GISWNSGDIGYADSVK, VGRGGGYFMY the result was 3.52, 3.89, nd (mean 3.71; controls 0 of 9).
With GFTFDDYAMH, GWSWNSGCIGYADSVR, VGRGGGYFDY the result was nd, nd, nd (controls 1 of 9).
With GFTFDDYAMH, GISWNSGMIGYADDCK, VGRGGGYFDY the result was nd, nd, nd (controls 0 of 9).
With GFTFDDYAMH, GISWNSGPIGYADSVK, VGRGGGYIDY the result was nd, nd, nd (controls 1 of 9).
With GFTFDDYAMH, GISWNSGAIGYADSVK, VGRGGGYFDW the result was 3.05, 3.07, 3.17 (mean 3.10; controls 2 of 9).
With GFTFDDYAMH, HISENSGAIGYADSVK, VGRGGGYFDY the result was nd, nd, nd (controls 0 of 9).
With GFFFDDYAMH, GISWNSGMIGYADSSK, VGRGGGYFDY the result was nd, nd, nd (controls 1 of 9).
With GFQFDDYAMH, GISWNSGRIGYADSVK, VGRCGGYFDY the result was nd, nd, nd (controls 1 of 9).
With GFTFDDYAMH, GISWNSGGIGYNDSVN, VGRGGGYFDY the result was 3.74, 6.13, nd (mean 4.93; controls 1 of 9).
With GFTFDDYAMH, GLSWNSGPIVYADSVK, VGRGGGYFDY the result was 5.02, 3.90, 4.65 (mean 4.53; controls 4 of 9).
With GFTFDDYAMH, GISWNYGLEGYADSVK, VGRGGGYFDY the result was nd, nd, nd (controls 2 of 9).
With GFTFDDYAMH, GISWNSGVIGYADSVK, VGRGGGYFDY the result was 4.45, 3.66, 4.56 (mean 4.22; controls 3 of 9).
With GRTFDDYAMH, GISWNSTTIGYADSVK, VGRGGGYFDY the result was 5.95, 5.58, 4.69 (mean 5.41; controls 3 of 9).
With GFTFDDYAMH, GIPWNSGRIGYADSVK, VGRGGGYFDY the result was 5.41, nd, nd (controls 1 of 9).
With GFTFDDYAMH, GISWNSGLQGYADSVK, VKRGGGYFDY the result was nd, nd, nd (controls 1 of 9).
With GFTFMDYAMH, GISWNSGNIGYADSVK, VGRGGGYFDY the result was nd, nd, nd (controls 2 of 9).

Picked from the list: the 2 lowest averages where every replicate gave a value.

| CDR-H1 | CDR-H2 | CDR-H3 | log10 Kd, replicates | mean log10 Kd (nM) | empty controls |
|---|---|---|---|---|---|
| GFTFDDYAMH | GISWNSGEWGYMDSVK | VGRGGGYFDY | 1.31, 1.46, 1.05 | 1.27 | 4 of 9 |
| GFTFDDYAMH | GISWNSGAIGYADSVK | VGRGGGYFDW | 3.05, 3.07, 3.17 | 3.10 | 2 of 9 |